Measurements published in patent publication US12349708B2, “Use and methods of 1,3-propanediol to improve taste and/or off-taste qualities” (Primient Covation LLC, priority 2019, dated 2025).

Tested on: experienced and trained panelist
Experiment: Sensorial description of energy drinks and additive solutions with propylene glycol or biologically-produced 1,3-propanediol (multi-sip-and-swallow taste method);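 further: propylene glycol or 1,3-propanediol added at 0.01, 0.1 or 1.0%, tasted by multi-sip-and-swallow in duplicate, compared with matching controls lacking either additive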
Details: RT
[1] = 0.01% PG or PDO in 2,000 ppm sucralose and 3,338 ppm caffeine in distilled water
[2] = 0.01% PG or PDO in 10,500 ppm malic acid and 3,338 ppm caffeine in distilled water
[3] = 0.1% PG or PDO in 2,000 ppm sucralose and 3,338 ppm caffeine in distilled water
[4] = 0.1% PG or PDO in 10,500 ppm malic acid and 3,338 ppm caffeine in distilled water
[5] = 1.0% PG or PDO in 2,000 ppm sucralose and 3,338 ppm caffeine in distilled water
[6] = 1.0% PG or PDO in 10,500 ppm malic acid and 3,338 ppm caffeine in distilled water

SMILES	Sensorial Description [1]	Sensorial Description [2]	Sensorial Description (0.01% PG or PDO in 10,500 ppm malic acid and 3,338 ppm caffeine in distilled water, listed as biologically-produced 1,3-propanediol)	Sensorial Description [3]	Sensorial Description [4]	Sensorial Description (0.1% PG or PDO in 10,500 ppm malic acid and 3,338 ppm caffeine in distilled water, listed as biologically-produced 1,3-propanediol)	Sensorial Description [5]	Sensorial Description [6]
OCCCO [PDO, 1,3-propanediol]	Significantly less off-taste, slightly less or less	(Very small sip): similar to Control #135.	no differences	More off-taste note than PDO 0.01%. But less	(Very small sip): Less bitterness. (Confirmed in	less overall bitterness than the propylene glycol-containing sample	Smoky flavor across the taste, more off-flavor	(Very small sip): weak off-flavor, similar quality to
CC(O)CO (centres unmarked) [PG, propylene glycol, reference compound]	Slightly different taste quality, hard to describe	(Very small sip): similar to Control #135.	–	Significantly less off-taste note than Control #142,	(Very small sip): similar to Control #135.	–	Appeared to have slightly more off-taste but	(Very small sip): similar to Control #135, slight PG
